Test results reported in patent publication US6548042B2, “Bis-phosphonate compounds” (priority 2000, dated 2003).

Experiment: Biodistribution of i.v. administered radioiodinated compounds in balb/c mice;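 further: healthy mice given radioiodinated bisphosphonic acids, with randomly chosen groups of three animals per time point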

With “phosphonyl(M-[^125I]-iodobenzyl)Phosphoric Acid [31a]” the “Femur to soft tissue ratio” value (24 h, soft tissue with highest uptake) was over 25, the “Uptake in the thyroid” value (24 h postinjection) was 0.13±0.03 % of the injected dose and the Uptake in femur (24 h postinjection, i.v.) was 2.05±0.49 % ID/g. For the same substance, the Uptake in kidneys (24 h postinjection, i.v.) was 0.08±0.02 % ID/g, the Uptake in skull (24 h postinjection, i.v.) was 1.22±0.19 % ID/g and the “Discomfort or toxicity after administration of samples” value (single bolus tail vein injection, 100 μl) was “No sign of discomfort or toxicity was observed”.
